Test results: ChEMBL document CHEMBL4340526, “Discovery and Mechanistic Study of Tailor-Made Quinoline Derivatives as Topoisomerase 1 Poison with Potent Anticancer Activity” (J Med Chem, 2019)
Positions count from the first letter of the chain named. Calls of active or inactive are those of the source. No cut-off for these calls is given here.

Legend:
[1] = tested on: T1, DNA topoisomerase 1 (Homo sapiens), P11387 [N722S]; settings: MCF7, 1 to 5 uM
T1 sequence (whole entry): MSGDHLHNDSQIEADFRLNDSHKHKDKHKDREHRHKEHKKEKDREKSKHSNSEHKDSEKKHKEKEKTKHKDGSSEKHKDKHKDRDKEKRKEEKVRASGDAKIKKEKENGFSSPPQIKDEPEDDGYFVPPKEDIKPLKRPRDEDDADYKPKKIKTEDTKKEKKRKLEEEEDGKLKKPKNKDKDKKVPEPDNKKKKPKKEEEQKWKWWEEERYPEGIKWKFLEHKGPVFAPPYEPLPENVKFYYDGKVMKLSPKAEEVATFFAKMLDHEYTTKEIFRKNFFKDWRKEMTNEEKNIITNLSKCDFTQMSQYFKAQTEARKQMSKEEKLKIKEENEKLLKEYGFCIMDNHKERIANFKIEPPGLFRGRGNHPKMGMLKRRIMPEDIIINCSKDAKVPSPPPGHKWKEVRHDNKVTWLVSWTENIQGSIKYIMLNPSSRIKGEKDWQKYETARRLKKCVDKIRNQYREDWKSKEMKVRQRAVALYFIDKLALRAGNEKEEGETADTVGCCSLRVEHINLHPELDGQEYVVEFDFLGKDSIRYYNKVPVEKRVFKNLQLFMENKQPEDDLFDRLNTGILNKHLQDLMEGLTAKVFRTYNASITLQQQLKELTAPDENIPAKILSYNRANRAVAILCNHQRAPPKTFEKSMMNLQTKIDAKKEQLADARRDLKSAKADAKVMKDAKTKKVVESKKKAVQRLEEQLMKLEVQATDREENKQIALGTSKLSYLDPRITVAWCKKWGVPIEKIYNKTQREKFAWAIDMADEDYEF

[2] = target: T2, DNA topoisomerase 1 (Homo sapiens) (UniProt P11387); settings: Sf9, 2 to 25 uM
T2 sequence (whole entry): T1 sequence (whole entry) with S722N

With `COc1ccc(-c2ccc3ncc(-c4nnco4)c(NCCCn4ccnc4)c3c2)cc1` as the molecule, how does the inhibition [1] read?
Its inhibition is “Active”.

What about the inhibition [2] of the same molecule?
The inhibition was “Active”.
